Two compounds from PubChem BioAssay AID880 (National Center for Advancing Translational Sciences (NCATS), 2007) can be followed below.

By UniProt entry, the sequences of proteins in these tests, tags left out.
UniProt P63096, whole entry, looked up: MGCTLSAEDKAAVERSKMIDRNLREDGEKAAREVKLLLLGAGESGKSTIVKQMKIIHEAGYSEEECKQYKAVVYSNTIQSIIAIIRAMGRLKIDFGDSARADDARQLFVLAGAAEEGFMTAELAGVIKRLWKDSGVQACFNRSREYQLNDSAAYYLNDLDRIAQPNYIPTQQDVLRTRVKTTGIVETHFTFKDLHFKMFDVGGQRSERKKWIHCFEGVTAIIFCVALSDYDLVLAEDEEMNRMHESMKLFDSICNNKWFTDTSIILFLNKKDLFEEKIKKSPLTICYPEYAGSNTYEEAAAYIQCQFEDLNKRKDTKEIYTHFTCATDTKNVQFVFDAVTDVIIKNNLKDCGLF

This is a selection; strong and weak results do not stand in their true shares. Activity calls are given as the source filed them. Calls follow the shape of the dose curve; as a rule, active = well fitted inhibition curve with a large enough effect (not every such curve was filed as active); inactive = no such curve, though single readings can be large or run the other way.
Potency is read from the fitted curve at half-maximal effect.

The target of this test is Guanine nucleotide-binding protein G(i) subunit alpha-1 (Homo sapiens) (UniProt P63096). The test can be described thus: qHTS Assay for Inhibitors of RGS12 GoLoco Motif Activity (Red Fluorophore). Also: nearly all actives have a fitted effect of over 30% in size. The note with it: Gai1:RGS12 GoLoco peptide FP, rhodamine, 10 min. An excerpt:
Assay Submitter: Siderovski, David P, University of North Carolina at Chapel Hill
Screening Center PI: Austin, C.P.
Screening Center: NIH Chemical Genomics Center [NCGC]
G-protein-coupled receptors (GPCRs) are major targets for drug discovery. The regulator of G-protein signaling (RGS)-protein family has important roles in GPCR signal transduction. RGS proteins contain a conserved RGS-box, which is often accompanied by other signaling regulatory elements. RGS proteins accelerate the deactivation of G proteins to reduce GPCR signaling; however, some also have an effector function and transmit signals. Combining GPCR agonists with RGS inhibitors should potentiate responses, and could markedly increase the agonist's regional specificity. The diversity of RGS proteins with highly localized and dynamically regulated distributions in brain makes them attractive targets for pharmacotherapy of central nervous system disorders. […] Inhibitors of the binding are detected by a decrease in the fluorescence polarization (FP) of the fluorophore. […]
Four uL of reagents were dispensed to 1536-well Greiner black solid-bottom plates. […] The plates were incubated for 10 min at room temperature, and then read on ViewLux (Perkin-Elmer) High-throughput CCD imager using BODIPY for the rhodamine-labeled decapeptide probe. […]
As to `O=P(Nc1nccs1)(c1ccccc1)c1nc2ccccc2s1` (configuration not stated), the Potency is active: 2 µM.

As to `Nc1cccc2c([As](=O)(O)O)cccc12`, the Potency is active: 22.4 µM.
